Test results from publication PMC3520743, “Bacillus cereus Fnr binds a [4Fe-4S] cluster and forms a ternary complex with ResD and PlcR” (BMC Microbiology, 2012).

Target: Fnr (B. cereus Fnr; apoFnr / holoFnr) (Bacillus cereus, UniProt A4GFD9)
Details: anoxic, 18 °C, pH 7.5, 4 mM DTT; cluster assembled from Fe(NH4)2(SO4)2 and L-cysteine by E. coli CsdA; one cluster per monomer

[S]12[Fe]3[S]4[Fe]1[S]1[Fe]2[S]3[Fe]41 [[4Fe-4S]^2+ cluster]
anaerobic CsdA-driven reconstitution; UV-visible and EPR spectroscopy, iron cont: These data are consistent with the reconstitution of one [4Fe-4S] cluster per Fnr monomer
